Results on five compounds are retold here after patent publication US12479830B2, “Homopiperazinyl and homopiperidinyl quinazolin-4(3H)-one derivatives having multimodal activity against pain” (ESTEVE PHARMACEUTICALS, S.A., priority 2019, dated 2025).

Amino acid sequences for entries named in this document (tags omitted). A change or cut given only in a name is not applied to a line headed by its entry. Residues count along the entry.
UniProt Q99720, whole entry: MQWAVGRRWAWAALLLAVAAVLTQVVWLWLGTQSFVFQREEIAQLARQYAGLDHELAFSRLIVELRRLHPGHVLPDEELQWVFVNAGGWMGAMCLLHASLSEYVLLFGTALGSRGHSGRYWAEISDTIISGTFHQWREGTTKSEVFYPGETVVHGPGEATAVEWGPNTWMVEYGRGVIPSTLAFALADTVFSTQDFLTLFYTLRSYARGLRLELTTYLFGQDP
UniProt P54289, 25-1103 limits assumed: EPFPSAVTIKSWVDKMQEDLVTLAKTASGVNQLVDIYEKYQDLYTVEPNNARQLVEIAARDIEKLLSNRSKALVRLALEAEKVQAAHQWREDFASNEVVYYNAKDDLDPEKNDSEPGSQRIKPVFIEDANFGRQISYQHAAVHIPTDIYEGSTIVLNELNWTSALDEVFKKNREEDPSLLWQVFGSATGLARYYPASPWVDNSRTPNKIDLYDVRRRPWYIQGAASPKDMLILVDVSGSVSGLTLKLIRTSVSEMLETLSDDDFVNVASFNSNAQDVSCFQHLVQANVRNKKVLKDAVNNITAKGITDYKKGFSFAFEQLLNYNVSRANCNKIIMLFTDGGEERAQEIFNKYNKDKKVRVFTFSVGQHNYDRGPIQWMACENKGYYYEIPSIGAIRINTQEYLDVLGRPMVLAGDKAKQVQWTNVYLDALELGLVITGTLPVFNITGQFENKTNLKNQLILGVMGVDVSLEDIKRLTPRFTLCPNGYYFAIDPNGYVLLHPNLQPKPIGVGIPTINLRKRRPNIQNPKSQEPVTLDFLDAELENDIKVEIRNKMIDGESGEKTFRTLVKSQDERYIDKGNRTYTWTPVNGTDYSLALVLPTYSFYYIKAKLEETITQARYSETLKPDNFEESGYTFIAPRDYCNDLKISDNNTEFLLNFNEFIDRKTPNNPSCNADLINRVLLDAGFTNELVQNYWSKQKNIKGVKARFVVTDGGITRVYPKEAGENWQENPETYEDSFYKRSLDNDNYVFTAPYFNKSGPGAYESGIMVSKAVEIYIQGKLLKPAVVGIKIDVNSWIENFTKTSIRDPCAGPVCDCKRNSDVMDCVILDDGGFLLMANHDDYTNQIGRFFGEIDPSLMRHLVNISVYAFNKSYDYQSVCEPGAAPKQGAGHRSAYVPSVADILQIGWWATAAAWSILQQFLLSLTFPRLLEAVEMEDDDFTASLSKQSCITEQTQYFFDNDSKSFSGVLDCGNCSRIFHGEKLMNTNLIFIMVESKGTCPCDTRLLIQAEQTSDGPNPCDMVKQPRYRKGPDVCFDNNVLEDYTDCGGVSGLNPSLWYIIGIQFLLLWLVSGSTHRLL

SMILES strings stand for the structures.

Test [1] addresses Human σ1 receptor (Homo sapiens, UniProt Q99720). Kind of test: Human σ1 receptor radioligand assay ([3H](+)-pentazocine binding). The following applies: read-out: σ1 binding; binding to the σ1 receptor, expressed as Ki class; + also covers inhibition between 1% and 50%. As to the method:
Human σ1 Receptor Radioligand Assay
Transfected HEK-293 membranes (7 μg) were incubated with 5 nM of [^3H](+)-pentazocine in assay buffer containing Tris-HCl 50 mM at pH 8. NBS (non-specific binding) was measured by adding 10 μM haloperidol. The binding of the test compound was measured at either one concentration (% inhibition at 1 or 10 μM) or five different concentrations to determine affinity values (Ki). Plates were incubated at 37° C. for 120 minutes. After the incubation period, the reaction mix was then transferred to MultiScreen HTS, FC plates (Millipore), filtered and plates were washed 3 times with ice-cold 10 mM Tris-HCL (pH7.4). Filters were dried and counted at approximately 40% efficiency in a MicroBeta scintillation counter (Perkin-Elmer) using EcoScint liquid scintillation cocktail.

Test [2] has as its target Human α2δ-1 subunit of Cav2.2 calcium channel (Homo sapiens, UniProt P54289). Kind of test: Human α2δ-1 subunit of Cav2.2 calcium channel assay ([3H]-gabapentin binding). The following applies: read-out: α2δ-1 binding; binding to the α2δ-1 subunit of voltage-gated calcium channels, expressed as Ki class; + also covers inhibition between 1% and 50%. As to the method:
Human α2δ-1 Subunit of Cav2.2 Calcium Channel Assay
Human α2δ-1 enriched membranes (2.5 μg) were incubated with 15 nM of radiolabeled [^3H]-Gabapentin in assay buffer containing Hepes-KOH 10 mM. pH 7.4. NSB (non specific binding) was measured by adding 10 μM pregabalin. The binding of the test compound was measured at either one concentration (% inhibition at 1 or 10 μM) or five different concentrations to determine affinity values (Ki). After 60 min incubation at 27° C., binding reaction was terminated by filtering through Multiscreen GF/C (Millipore) presoaked in 0.5% polyethyleneimine in Vacuum Manifold Station, followed by 3 washes with ice-cold filtration buffer containing 50 mM Tris-HCl, pH 7.4. Filter plates were dried at 60° C. for 1 h and 30 μL of scintillation cocktail were added to each well before radioactivity reading. Readings were performed in a Trilux 1450 Microbeta radioactive counter (Perkin Elmer).

For the compound `CCC[C@@H](c1nc2ccc(Br)cc2c(=O)n1CC)N1CCN(C)C[C@@H](CC)C1`, the figures for the Ki in test [1] and in test [2] were more than 1000 nM and more than 5000 nM, respectively.

Consider `CCC[C@H](c1nc2ncc(F)cc2c(=O)n1CC)N1CCCN(C)CC1`, for which the Ki in test [1] was more than 1000 nM; in test [2], less than 500 nM.

As for `CCC[C@@H](c1nc2ccc(Br)cc2c(=O)n1CC)N1CCN(C)C[C@H](CC)C1`, the Ki in test [1] was 500 to 1000 nM; in test [2] it was more than 5000 nM.

For `CCC[C@H](c1nc2ccc(Br)cc2c(=O)n1CC)N1CCN(C)C[C@H](CC)C1`, the Ki was more than 1000 nM in test [1] and less than 500 nM in test [2].

With `CCC[C@H](c1nc2ccc(Br)cc2c(=O)n1CC)N1CCN(C)C[C@@H](CC)C1`, the Ki in test [1] and in test [2] was less than 500 nM in each case.
